Hits are enriched below; roughly 2.1% of the tested compounds scored in any of these assays.
GRP78 ERSR act – inducers of ER stress response in human glioma cells | Potency, µM, for inactives: at the highest dose activation, actives largely listed as activators | AID 602332 | U87-MG GRP78 promoter luciferase reporter, 16 h | 0.02% of 420,000 active; further: potency means the concentration at half of the fitted maximal effect; series mostly up to about 76 µM; % of control where 0% means no effect; nearly all actives have a fitted effect of over 35% in size
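ERSR induction read as luciferase luminescence (Bright-Glo, 10 min at room temperature) in stably transfected human U87-MG glioma cells exposed to compounds for 16 h, using GRP78 as sensor.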
Nrf2 block – blocks Nrf2 signaling; 2.1% of 360,000 active; Potency, µM (top dose mostly 46 µM), for inactives: at the highest dose activity change, negative = inhibition, usual class: inhibitors; A549 ARE-Fluc reporter, luciferase luminescence, 18-24 h; further: potency means the concentration at half of the fitted maximal effect; on the % scale 0 is the no-effect control and ±100 the full control effect; nearly all actives have a fitted effect of over 60% in size
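Reporter: ARE-Fluc in A549. Exposure: 18-24 h, 37 °C, 5% CO2, 5% FBS OPTI-MEM. Readouts: fluorescent cytotoxicity (CellTiter-Fluor), then luminescent Nrf2 signal after BugLite.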
Nrf2 activator – activators of Nrf2 (ARE) signaling. AREc32 ARE-luciferase reporter (MCF7-derived line), luminescence, 24 h. Potency, µM (titrated, usually from 46.1 µM), inactives show at the top dose activation, most hits filed as activators. 0.31% of 410,000 active; further: potency means the concentration at half of the fitted maximal effect; % of control where 0% means no effect; nearly all actives have a fitted effect of over 65% in size
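Each well held 1000 AREc32 cells, which were incubated with compound for 24 hr at 37 deg C after overnight attachment, and ARE reporter activity was quantified by firefly luciferase luminescence.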
PTAP TSG101 blk – blocks PTAP/TSG101 interaction to inhibit HIV-1 budding | Q99816 | Potency, µM (titrated, usually from 115 µM), inactives show top-dose activity change, negative = inhibition, hits mostly inhibitors | Fluorescence polarization, FITC-PTAP peptide / Tsg101 binding | 340,000 tested, under 10 active | AID 493005; active means well fitted inhibition curve with a large enough effect in the main read-out, with a control signal flat, not every such curve was filed as active; inconclusive means small, poorly fitted or top-dose-only effect, or effect the other way, or a change in a side signal; inactive means no such curve, though single readings can be large or run the other way; further: potency means the concentration at half of the fitted maximal effect; % of control where 0% means no effect
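FP read-out: FITC-PTAP peptide, 50 nM final, binding Tsg101 binding domain, 10 uM final; 20 min, r.t.; 10 mM HEPES pH 7.5, 0.15 M NaCl, 0.01% Tween 20, 3 mM EDTA, 0.1 mM TCEP.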
A549 tox-1 – kills or reduces viability of A549 cells in Nrf2 counter-screen. 0.16% of 390,000 active. Potency, µM (highest dose often 46 µM), inactives show at the highest dose activity change, negative = cytotoxicity, usual class: inhibitors. A549 ARE-Fluc cells, CellTiter-Fluor viability, 18-24 h; further: potency means the concentration at half of the fitted maximal effect; on the % scale 0 is the no-effect control and ±100 the full control effect
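A549 ARE-Fluc cells in 5% FBS OPTI-MEM, 5000 cells/well, rested 2 h then exposed to compounds in concentration-response for 18-24 h at 37 °C. Viability by CellTiter-Fluor fluorescence (Ex 405/Em 525) after 30 min; luciferase luminescence (BugLite, 15 min, RT) read afterwards.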
miR-21 reporter – raises the signal of a miR-21 reporter; Potency, µM (doses to about 38.3 µM), inactives show top-dose reporter change, positive = more light; HeLa miR-21 FLuc reporter, luciferase, 48 h; AID 2288; 340,000 tested, under 10 active; active = well fitted rising curve with a large enough effect; inconclusive = small, poorly fitted or top-dose-only effect; inactive = no such curve, though single readings can be large or run the other way;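 further: % of control where 0% means no effect; miR-21 action dims this reporter so a rising signal means less miR-21 action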
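Using DMEM plus 10% FBS, HeLa miR-21-FLuc cells are incubated with test compounds (final up to about 40uM) for 48 hours; firefly luciferase signal is then imaged following reagent-mediated lysis.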
FLuc counter 3 – counter-screen for Nrf2 inhibitors: firefly luciferase enzyme inhibition | shares compounds with Nrf2 block | 4% of 1,400 active | Potency, µM (doses to about 57.5 µM), inactives show at the top dose activity change, negative = inhibition, most hits filed as inhibitors | purified firefly luciferase, luminescence inhibition; further: potency means the concentration at half of the fitted maximal effect; on the % scale 0 is the no-effect control and ±100 the full control effect; nearly all actives have a fitted effect of over 65% in size
A549 tox-2 – toxic to A549 ARE-Fluc cells in Nrf2 counterscreen. shares compounds with Nrf2 block. A549 ARE-Fluc cells, cytotoxicity counterscreen. Potency, µM (highest dose often 46.1 µM), for inactives: at the highest dose activity change, negative = cytotoxicity, usual class: inhibitors. 2% of 1,400 active. AID 720523;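 further: potency means the concentration at half of the fitted maximal effect; cells exposed to compounds for 18 to 24 hours; on the % scale 0 is the no-effect control and ±100 the full control effect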
ARE-Fluc inh – confirmation of Nrf2 inhibitors in A549 ARE reporter cells; shares compounds with Nrf2 block; A549 ARE-firefly luciferase reporter, luminescence; Potency, µM (titrated, usually from 46.1 µM), for inactives: top-dose activity change, negative = inhibition, hits mostly inhibitors; 74% of 1,400 active; AID 720524; further: potency means the concentration at half of the fitted maximal effect; on the % scale 0 is the no-effect control and ±100 the full control effect; nearly all actives have a fitted effect of over 65% in size
* hit, by the source's call; ? = inconclusive; . = no result shown. Unless noted, the call rests on the fitted dose curve; in most records, active means well fitted curve in the direction sought with a large enough effect; inconclusive means small, poorly fitted or top-dose-only effect, or another doubt; inactive means no such curve, though single readings can be large; an effect the other way counts as inactive or inconclusive.

(1) CCN(CC)c1ccc(/C=C/c2ccccn2)cc1
(2) CN(C)c1ccc(/C=C/c2ccccn2)cc1
(3) C[C@H]1CN([C@@H](C)CO)C(=O)c2cccc(NS(=O)(=O)c3ccc(F)cc3)c2O[C@H]1CN(C)Cc1ccc(Cl)c(Cl)c1
(4) CC1CC(C)C[N+](=C2C=C(N3CCCC3)CC(C)(C)C2)C1 (stereo not given)
(5) CC1(C)CC(N2CCCC2)=CC(=[N+]2CCCCCC2)C1
(6) CC1(C)CC(N2CCN(c3ccccc3)CC2)=CC(=[N+]2CCCC2)C1
Screen / compound no.,1,2,3,4,5,6
GRP78 ERSR act,-6.8%,-1.6%,-2.9%,-5.2%,-5.4%,-3.4%
Nrf2 block,.,.,5.17µM*,5.17µM*,-19.8%,?
Nrf2 activator,.,.,-5.1%,-0.2%,-0.8%,-0.4%
PTAP TSG101 blk,.,.,-4.7%,-6.3%,-9.9%,-16.4%
A549 tox-1,.,.,-14.8%,?,-22.8%,-5.5%
miR-21 reporter,.,.,.,?,?,?
FLuc counter 3,-13.1%,.,3.1%,-3.3%,.,2.1%
A549 tox-2,9.2µM*,.,?,-27.9%,.,-13.5%
ARE-Fluc inh,1.64µM*,.,18.4µM*,.,.,4.61µM*

(7) CN(C)c1ccc(/C=C/c2ccnc3c(O)ccc(O)c23)cc1
(8) O=c1cc(O)c2c([nH]1)CCC2
(9) O=c1c2cccc3c2c(nn1CN1CCOCC1)-c1ccccc1-3
(10) COc1ccccc1NS(=O)(=O)c1cc(NC(=O)CCC(=O)c2cccs2)ccc1Cl
(11) COc1ccc(NC(=O)CCC(=O)c2cccs2)cc1S(=O)(=O)Nc1ccc(Cl)cc1
(12) COc1c(S(=O)(=O)N2CCN(c3ccc(F)cc3)CC2)ccc(Cl)c1Cl
Screen / compound no.,7,8,9,10,11,12
GRP78 ERSR act,-1.1%,-1.3%,-4.7%,2.1%,1.0%,-2.2%
Nrf2 block,.,.,3.66µM*,8.2µM*,8.0%,-18.5%
Nrf2 activator,.,.,13.9%,0.1%,-0.2%,0.1%
PTAP TSG101 blk,.,.,-0.4%,-5.5%,3.1%,-2.7%
A549 tox-1,.,.,-12.6%,-17.2%,-1.5%,13.5%
miR-21 reporter,.,.,-24.9%,10.2%,20.1%,-4.6%
FLuc counter 3,.,.,3.1%,-4.9%,.,.
A549 tox-2,.,.,-8.8%,-0.8%,.,.
ARE-Fluc inh,.,.,8.2µM*,?,.,.

(13) CCOc1cc(Cl)c(S(=O)(=O)n2cc(C)nc2CC)cc1Cl
(14) CCOc1ccc(OCC)c(S(=O)(=O)n2cc(C)nc2CC)c1
(15) CCc1nc(C)cn1S(=O)(=O)c1ccc(Cl)c(Cl)c1OC
(16) C=C1C=C(C)n2ncc(C(=O)Nc3ccc(NC(C)=O)c(Cl)c3)c2N1
(17) O=C(C[n+]1cccc(Br)c1)c1ccc2ccccc2c1
(18) CC(=NNc1nc2ccccc2o1)c1ncccn1
(19) COc1ccc(Nc2nnc(SC(C(=O)Nc3cc(C)ccc3C)c3ccccc3)s2)cc1 (stereo not given)
(20) Cc1ccc(N(CC(=O)Nc2cc(C)cc(C)c2)S(=O)(=O)c2c(C)noc2C)cc1
(21) CC1CC=CC2C1C(=O)N(Cc1ccccc1)C2c1ccc(F)c(Br)c1 (stereo not given)
Screen / compound no.,13,14,15,16,17,18,19,20,21
GRP78 ERSR act,-3.2%,-3.4%,-1.9%,-2.1%,4.0%,-3.5%,-4.4%,-3.7%,-12.0%
Nrf2 block,8.2µM*,21.8%,5.8µM*,.,.,3.26µM*,8.2µM*,7.31µM*,?
Nrf2 activator,0.2%,0.5%,0.0%,.,.,?,2.2%,0.0%,.
PTAP TSG101 blk,.,-6.0%,.,.,.,-0.8%,-1.3%,3.1%,.
A549 tox-1,-8.0%,9.4%,-0.3%,.,.,-19.7%,-15.6%,?,-19.0%
miR-21 reporter,21.1%,-0.9%,16.4%,.,.,.,-2.3%,?,.
FLuc counter 3,2.9%,.,0.1%,.,.,19µM*,-0.3%,2.0%,.
A549 tox-2,0.1%,.,-1.3%,.,.,?,-6.1%,-18.7%,.
ARE-Fluc inh,8.2µM*,.,5.8µM*,.,.,.,-25.0%,11.6µM*,.

Part of the list above, with values under each structure:
Results follow in this order: GRP78 ERSR act	Nrf2 block	Nrf2 activator	PTAP TSG101 blk	A549 tox-1	miR-21 reporter	FLuc counter 3	A549 tox-2	ARE-Fluc inh
16	C=C1C=C(C)n2ncc(C(=O)Nc3ccc(NC(C)=O)c(Cl)c3)c2N1
    -2.1%	.	.	.	.	.	.	.	.
17	O=C(C[n+]1cccc(Br)c1)c1ccc2ccccc2c1
    4.0%	.	.	.	.	.	.	.	.
18	CC(=NNc1nc2ccccc2o1)c1ncccn1
    -3.5%	3.26µM*	?	-0.8%	-19.7%	.	19µM*	?	.
